These are literature values, as cited in US20250040547A1, “COMPOSITION CONTAINING A MACROLIDE INSECTICIDAL COMPOUND AND POLYCATIONIC RHEOLOGY MODIFIER” (priority 2021, published 2025).

On to Emamectin benzoate, for which the water solubility is listed as 24 mg/L-1.
